Assay results from article PMC9966338, “Inhibitory Potential of α-Amylase, α-Glucosidase, and Pancreatic Lipase by a Formulation of Five Plant Extracts: TOTUM-63” (International Journal of Molecular Sciences, 2023).

The chains behind the UniProt entries cited, without tags or fusion partners. Where a name states a change or a piece, a line headed by the entry shows the natural chain unless it says otherwise.
UniProt P53341: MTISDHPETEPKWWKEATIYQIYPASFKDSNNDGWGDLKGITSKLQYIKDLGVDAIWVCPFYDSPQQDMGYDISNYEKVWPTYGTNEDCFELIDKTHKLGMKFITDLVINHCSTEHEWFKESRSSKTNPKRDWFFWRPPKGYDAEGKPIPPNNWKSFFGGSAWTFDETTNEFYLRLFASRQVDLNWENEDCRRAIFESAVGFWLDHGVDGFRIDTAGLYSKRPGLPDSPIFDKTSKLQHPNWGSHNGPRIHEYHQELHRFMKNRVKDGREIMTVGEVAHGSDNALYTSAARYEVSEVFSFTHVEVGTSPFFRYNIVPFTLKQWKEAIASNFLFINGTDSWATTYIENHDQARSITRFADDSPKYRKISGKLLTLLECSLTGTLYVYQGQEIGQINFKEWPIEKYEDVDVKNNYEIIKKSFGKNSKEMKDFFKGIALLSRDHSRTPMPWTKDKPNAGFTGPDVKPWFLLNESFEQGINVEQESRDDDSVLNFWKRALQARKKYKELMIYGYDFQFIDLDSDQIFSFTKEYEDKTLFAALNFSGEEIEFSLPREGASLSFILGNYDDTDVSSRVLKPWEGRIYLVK

Target: T1, α-Glucosidase (maltase from Saccharomyces cerevisiae) (Saccharomyces cerevisiae, UniProt P53341)
T1 construct: purchased Merck/Sigma-Aldrich
Experiment: biochemical
Source text: Chrysanthellin B was purchased from Extrasynthese (Genay, France). 2-(N-morpholino)-ethanesulfonic acid (MES) buffer was purchased from ThermoFisher Scientific (Waltham, Massachusetts, USA). NaN3 was obtained from Carlo Erba Reagents (Val-de-Reuil, France). Pure water was obtained using an Evoqua ultra-pure water production system (Water Technologies, Günzburg, Germany). The RED-NHS protein labeling kit was from NanoTemper Technologies (Munich, Germany).
α-Glucosidase hydrolytic activity was assessed by monitoring the conversion of p-nitrophenyl-α-D-glucopyranoside (PNPg) into p-nitrophenol (PNP). PNP levels were quantified at 405 nm. […] A series of PNP dilutions in buffer was used to generate the standard curve to convert PNP absorbance values into concentrations. The final α-glucosidase concentration corresponded to an activity of 30 µM of PNP/min for negative control without inhibitor. In each microplate well, 20 µL of test products diluted in a 50:50 (v:v) water:ethanol mixture (or 20 µL of this solvent mixture for the negative controls), 20 µL of α-glucosidase in buffer (or 20 µL of buffer for the blanks), and 100 µL of buffer were incubated in a microplate reader at 37 °C for 10 min. […] A FLUO Star Omega (BMG LabTech, Champigny sur Marne, France) 96-well microplate reader, thermostatically controlled at 37 °C, was used to measure the absorbance at 405 nm, every minute for 30 min. […]

For `O=C(/C=C/C=C/c1ccc2c(c1)OCO2)N1CCCCC1` [Piperine], the IC50 was 3.15 µM.
